## AlphaSeq binding of Ab-95 light chain variants to a spike HR2 peptide

Target: peptide PDVDLGDISGINAS, taken from heptad repeat 2 (HR2) of SARS-CoV-2 spike.

The variants keep the heavy chain, the linker and the frameworks of Ab-95 (scFv order VH, a (GGGGS)3 linker, VL).
VH: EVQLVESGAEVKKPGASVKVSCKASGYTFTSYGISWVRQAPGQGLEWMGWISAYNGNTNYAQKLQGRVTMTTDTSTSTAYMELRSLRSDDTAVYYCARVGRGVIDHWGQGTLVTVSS
VL: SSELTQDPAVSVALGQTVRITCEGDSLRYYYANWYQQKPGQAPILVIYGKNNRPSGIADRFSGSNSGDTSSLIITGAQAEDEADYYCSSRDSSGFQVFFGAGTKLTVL

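The library (AAYL52) carries one to three amino acid substitutions per variant, with no insertions or deletions. In AlphaSeq, yeast of one mating type display the scFv and yeast of the other type display the target. Mating (16 h, 30 °C) was followed by selection of diploids and sequencing of their barcodes. The ratio of observed to expected reads was calibrated, replicate by replicate, on BCL2-family standards whose Kd was known from biolayer interferometry. There are three technical replicates.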

Variants are written as CDR1, CDR2 and CDR3 of the light chain (limits as in the source). Parent: EGDSLRYYYAN, GKNNRPS, SSRDSSGFQVF.
Affinities are written as log10 Kd with Kd in nM; a lower number is a better binder.
Where no diploid with the target was found in that replicate, the entry reads "ND": below detection, most likely a poor binder, though not proof of it.
Nonspecific signal, from three strains lacking the peptide, appeared in 28% of pairings of library AAYL52, centred on 3.91 (5% of these signals below 2.90); values are not corrected for it. The control count says in how many pairings with the empty strains this scFv gave a signal, with their mean in brackets.
In this assay the parent's reference entry averaged 2.31; its copy inside this library read 2.25.

CDR-L1	CDR-L2	CDR-L3	log10 Kd, replicates	control signals
EGDLLRYYYAN	HKNNRPS	SSRDSSGTQVF	ND ND ND	3 of 9 (3.44)
EGDSLRYYYAN	GKNSRMS	SCRDSSGFQVF	2.07 2.17 1.98	3 of 9 (4.27)
EWDSLRYYYAN	GENNRPS	SSRDSSKFQVF	5.60 3.80 4.06	3 of 9 (4.49)
EGDSLRYYYAN	GKNNRPS	SSNDQSGFQVF	ND ND 3.44	0 of 9
EGDSLRYYYAN	GRNNRPS	SWRDSSGFQVY	3.45 2.51 ND	1 of 9 (4.87)
EGQSLRYYYAN	GKNNRES	SSHDSSGFQVF	5.45 ND ND	1 of 9 (3.84)
EGDSLRKYYAN	GKNNRPS	SSRDSNGFQEF	2.67 ND ND	2 of 9 (3.09)
SGDNLRYYYAN	GKNNRPT	SSRDSSGFQVF	3.02 2.71 2.47	4 of 9 (4.23)
EHDSLRYYYAN	GKNNYPR	SSRDSSGFQVF	ND ND ND	3 of 9 (3.89)
EGDSLRYYYAN	GKNNRFT	SSRDSSGFQEF	3.21 3.41 ND	5 of 9 (4.58)
EGDSARYMYAN	GKNNRPS	SSRDSSGFQVL	3.02 3.61 4.28	3 of 9 (4.00)
EADSLRLYYAN	GKNNRPS	SDRDSSGFQVF	3.94 4.93 4.63	8 of 9 (4.12)
EGDSLRYYYAN	GKNNRQS	SPRDSNGFQVF	ND ND ND	0 of 9
EGDSGRYYYAN	GYNNRPS	SSPDSSGFQVF	ND ND ND	1 of 9 (4.40)
EGDSLRNYYAN	AKHNRPS	SSRDSSGFQVF	3.86 ND ND	4 of 9 (4.58)
EGDSLRYYVLN	GKNNRPS	SSRDSSGMQVF	2.77 3.63 3.12	3 of 9 (3.39)
EGDSLRYYYAN	GKNNRPS	SSRDSSAFQNM	3.23 2.92 2.74	1 of 9 (3.69)
EGDSLRYYYAN	GKNCRPS	SSRDSKAFQVF	3.14 ND 3.25	2 of 9 (3.27)
EGDSLRYYWAN	GKNNRDS	SSRDSSGFQVI	ND ND ND	1 of 9 (4.37)
EGDSLYYYYAN	GQNNRPS	SSRDSCGFQVF	2.71 3.55 3.55	0 of 9
EGDSLRYYYAN	GKNNRPS	CQRDSSGFQAF	3.14 ND ND	4 of 9 (4.76)
EGDSLRYYYAN	GKNNRLS	SSRVCSGFQVF	3.44 3.97 3.32	2 of 9 (3.77)
EGTSLRYYYAN	GKNNRPR	SSRDSSGIQVF	3.24 3.90 3.23	4 of 9 (4.26)
EGDHLRYYYAN	GKNNDPS	SWRDSSGFQVF	ND ND ND	2 of 9 (3.72)
EGDSLRYYYAN	GANNRPS	SSRDSSGFAVF	2.70 3.97 3.27	3 of 9 (3.89)
GGDSLRYYAAM	GKNNRPS	SSRDSSGFQVF	2.76 3.26 2.78	2 of 9 (3.33)
EGDSLTWYYAN	GKNNRPS	SSRDSVGFQVF	3.91 4.47 3.28	3 of 9 (3.59)
ECDSLRYYYAN	GKNNRPS	SSRDSSGFQLF	3.32 3.90 2.71	3 of 9 (4.14)
EFDSLRYYYAN	GKNLRPS	ESRDSSGFQVF	4.44 4.20 ND	1 of 9 (4.31)
EGDSLTYYYAN	GKNNRPS	SSRDISGPQVF	3.88 ND 3.89	3 of 9 (4.01)
EGDSLRYYRAN	GKNNPPS	SGRDSSGFQVF	ND 3.50 ND	3 of 9 (3.82)
EGPSLRYYYDN	GKNNRPS	SSRDSSGSQVF	3.11 3.63 4.52	4 of 9 (4.57)
EGDSLRYYMAS	GKNNRPS	SSRDSSGFVVF	3.69 4.46 4.39	6 of 9 (4.94)
EGDSLRYYYAN	GKNNRPS	SSRDLFGFQVT	ND 4.42 ND	1 of 9 (3.34)

5 of these entries, quoted again:

CDR-L1	CDR-L2	CDR-L3	log10 Kd, replicates	control signals
EGQSLRYYYAN	GKNNRES	SSHDSSGFQVF	5.45 ND ND	1 of 9 (3.84)
EGDSLRYYYAN	GKNNRQS	SPRDSNGFQVF	ND ND ND	0 of 9
EGDSLRYYYAN	GKNNRFT	SSRDSSGFQEF	3.21 3.41 ND	5 of 9 (4.58)
EADSLRLYYAN	GKNNRPS	SDRDSSGFQVF	3.94 4.93 4.63	8 of 9 (4.12)
EGDSLTYYYAN	GKNNRPS	SSRDISGPQVF	3.88 ND 3.89	3 of 9 (4.01)

Source: Engelhart et al. 2022 (doi:10.1038/s41597-022-01779-4), MIT Lincoln Laboratory and A-Alpha Bio; data file from the FLAb repository.